A word on the inhibition: it is the relative decrease from the control value, in per cent.

The chains behind the UniProt entries cited, without tags or fusion partners. Residues count along the entry.
UniProt P25774, 115-331 limits assumed: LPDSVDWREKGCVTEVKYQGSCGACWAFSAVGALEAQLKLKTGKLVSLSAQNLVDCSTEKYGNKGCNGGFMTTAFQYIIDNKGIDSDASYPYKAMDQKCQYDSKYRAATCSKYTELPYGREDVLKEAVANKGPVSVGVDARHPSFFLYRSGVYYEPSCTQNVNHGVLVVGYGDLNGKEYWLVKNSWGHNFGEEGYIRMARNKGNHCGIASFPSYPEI

Molecules are shown by their SMILES. This is a selection; strong and weak results do not stand in their true shares. Some of these compounds have results that are not shown, active ones among them. Activity calls are given as the source filed them. No stated cut-off is given here; in the data, active means inhibition above about 32% (passing the limit was not always enough); inconclusive means no clear call, values can overlap the other calls.

We go through two molecules from PubChem BioAssay AID501 (PCMD, 2006).

In the test the target is Cathepsin S (Homo sapiens) (UniProt P25774). The test can be described thus: blockers of CTSS protease activity – biochemical, compound mixtures (AID 501).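 Further: 0% = enzyme without compound and 100% = blank without enzyme.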 The following applies: recombinant cathepsin S, AMC dipeptide fluorescence, pooled mixtures; hits give high values;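 tested at 5 µM per compound within 10-compound mixtures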.
Regarding `CN(C)c1cccc(C(=O)NCC2(N(C)C)CCCCC2)c1`, the inhibition is inactive: 10.4%.

As for `O=C(OC1CN2CCC1CC2)C(CO)(c1ccccc1)c1ccccc1` (configuration not stated), the inhibition is inactive: 2.46%.
